For this experiment, the target named is purified PARP protein (Homo sapiens, UniProt P09874). Briefly: PARP enzyme inhibition assay. The format is biochemical. The following applies: read-out: Inhibition Constant Ki; [32P]NAD+ incorporation, 500 μM NAD+, 25° C.; two values in a cell = tested twice.

Sequences of proteins named here, by UniProt entry; tags and fusion partners are left off.
UniProt P09874, whole entry: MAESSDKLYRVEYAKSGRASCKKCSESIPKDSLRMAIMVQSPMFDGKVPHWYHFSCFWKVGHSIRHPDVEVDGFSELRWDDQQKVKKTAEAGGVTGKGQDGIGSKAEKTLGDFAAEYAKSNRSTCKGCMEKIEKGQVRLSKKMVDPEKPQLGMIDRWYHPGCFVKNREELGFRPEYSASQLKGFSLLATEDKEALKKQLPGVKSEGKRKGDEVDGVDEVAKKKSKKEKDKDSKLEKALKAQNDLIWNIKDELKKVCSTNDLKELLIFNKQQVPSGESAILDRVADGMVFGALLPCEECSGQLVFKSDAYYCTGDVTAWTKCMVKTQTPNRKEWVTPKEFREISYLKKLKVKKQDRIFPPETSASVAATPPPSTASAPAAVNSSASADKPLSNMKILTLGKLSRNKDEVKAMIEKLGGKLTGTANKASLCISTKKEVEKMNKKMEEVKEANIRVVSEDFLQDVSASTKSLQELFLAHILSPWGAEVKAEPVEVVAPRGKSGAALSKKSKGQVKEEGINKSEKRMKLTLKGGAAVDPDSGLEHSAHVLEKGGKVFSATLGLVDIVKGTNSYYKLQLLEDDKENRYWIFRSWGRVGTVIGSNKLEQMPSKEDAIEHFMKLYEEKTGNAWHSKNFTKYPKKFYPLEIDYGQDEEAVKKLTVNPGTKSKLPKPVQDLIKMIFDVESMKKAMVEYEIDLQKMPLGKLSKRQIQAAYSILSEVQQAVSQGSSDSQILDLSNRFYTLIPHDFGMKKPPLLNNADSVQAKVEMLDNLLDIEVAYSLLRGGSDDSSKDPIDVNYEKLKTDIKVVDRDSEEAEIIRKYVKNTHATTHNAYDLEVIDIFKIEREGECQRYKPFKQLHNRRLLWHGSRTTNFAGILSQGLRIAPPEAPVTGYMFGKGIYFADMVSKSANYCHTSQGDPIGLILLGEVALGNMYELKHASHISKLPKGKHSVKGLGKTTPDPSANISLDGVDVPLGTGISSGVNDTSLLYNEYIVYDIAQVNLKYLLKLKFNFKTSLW

Values joined by “and” are separate entries in the source; they are usually repeats but may differ in a detail not shown here. Identical values can stand only once.

For one molecule, Ki results are on record in patent publication US7429578B2, “Tricyclic inhibitors of poly(ADP-ribose) polymerases” (Agouron Pharmaceuticals, Inc., priority 1999, dated 2008).

The Ki is a dissociation constant, usually derived from enzyme kinetics or from competition with a known ligand. For `COc1ccc(-c2[nH]c3cccc4c3c2CCNC4=O)cc1`, the Ki was 6.2 nM and 4.5 nM.
